Source: BindingDB's records for US8969358

Amino acid sequences for entries named in this document (tags omitted).
UniProt P41145, whole entry: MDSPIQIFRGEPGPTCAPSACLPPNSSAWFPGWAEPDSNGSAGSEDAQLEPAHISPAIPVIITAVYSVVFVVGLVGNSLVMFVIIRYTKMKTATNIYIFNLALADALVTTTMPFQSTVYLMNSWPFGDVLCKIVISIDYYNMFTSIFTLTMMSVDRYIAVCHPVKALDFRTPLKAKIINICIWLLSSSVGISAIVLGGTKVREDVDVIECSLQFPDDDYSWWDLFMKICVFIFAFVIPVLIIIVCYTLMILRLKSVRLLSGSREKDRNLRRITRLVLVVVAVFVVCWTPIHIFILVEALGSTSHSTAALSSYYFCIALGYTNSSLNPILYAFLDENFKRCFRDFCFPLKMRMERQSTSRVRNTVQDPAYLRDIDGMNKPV
UniProt P35372, whole entry: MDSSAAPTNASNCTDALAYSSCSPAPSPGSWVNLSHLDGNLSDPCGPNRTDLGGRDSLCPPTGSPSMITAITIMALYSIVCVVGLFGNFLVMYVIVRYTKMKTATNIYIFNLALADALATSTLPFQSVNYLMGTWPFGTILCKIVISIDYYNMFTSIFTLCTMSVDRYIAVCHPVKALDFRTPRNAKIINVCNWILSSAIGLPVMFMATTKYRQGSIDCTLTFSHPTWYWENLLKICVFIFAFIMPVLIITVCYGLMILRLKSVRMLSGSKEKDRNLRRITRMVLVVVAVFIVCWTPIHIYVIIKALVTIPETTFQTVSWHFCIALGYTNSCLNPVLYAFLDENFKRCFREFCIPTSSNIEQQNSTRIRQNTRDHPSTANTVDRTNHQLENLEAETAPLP
UniProt P41143, whole entry: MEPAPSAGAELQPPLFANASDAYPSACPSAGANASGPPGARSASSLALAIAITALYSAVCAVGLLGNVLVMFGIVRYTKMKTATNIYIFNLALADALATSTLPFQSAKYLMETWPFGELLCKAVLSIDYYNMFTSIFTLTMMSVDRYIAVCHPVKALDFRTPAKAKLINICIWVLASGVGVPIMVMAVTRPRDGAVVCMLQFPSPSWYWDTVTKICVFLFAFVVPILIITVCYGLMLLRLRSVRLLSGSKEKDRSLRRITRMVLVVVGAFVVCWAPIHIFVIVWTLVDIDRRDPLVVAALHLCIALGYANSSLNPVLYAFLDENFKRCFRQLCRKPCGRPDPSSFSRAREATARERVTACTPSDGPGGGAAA

These compounds were tested against Kappa-type opioid receptor (Homo sapiens, UniProt P41145) (assay: Binding Assay). Conditions: pH 7.4.

Structure (SMILES) | Ki [nM]
CO[C@]12CC[C@@]3(C[C@@H]1CNC(=O)[C@@H](N)Cc1c[nH]cn1)[C@H]1Cc4ccc(O)c5c4[C@@]3(CCN1CC1CC1)[C@H]2O5 | 0.25
COC12CC[C@@]3(C[C@@H]1CNC(=O)c1ccccc1C(=O)O)[C@H]1Cc4ccc(O)c5c4[C@@]3(CCN1CC1CC1)[C@H]2O5 | 0.32
CO[C@]12CC[C@@]3(C[C@@H]1CNS(C)(=O)=O)[C@H]1Cc4ccc(O)c5c4[C@@]3(CCN1CC1CC1)[C@H]2O5 | 0.74
CO[C@]12CC[C@@]3(C[C@@H]1CNC(=O)[C@H](CO)NC(C)=O)[C@H]1Cc4ccc(O)c5c4[C@@]3(CCN1CC1CC1)[C@H]2O5 | 0.61
CO[C@]12CC[C@@]3(C[C@@H]1CNC(=O)[C@@H](N)Cc1ccccc1)[C@H]1Cc4ccc(O)c5c4[C@@]3(CCN1CC1CC1)[C@H]2O5 | 0.06
COC12CC[C@@]3(C[C@@H]1CNC(=O)Nc1cccc(C)c1)[C@H]1Cc4ccc(O)c5c4[C@@]3(CCN1CC1CC1)[C@H]2O5 | 0.1
CO[C@]12CC[C@@]3(C[C@@H]1CNC(=O)[C@H](Cc1ccccc1)NC(C)=O)[C@H]1Cc4ccc(O)c5c4[C@@]3(CCN1CC1CC1)[C@H]2O5 | 0.16
CO[C@]12CC[C@@]3(C[C@@H]1CNS(=O)(=O)C(F)(F)F)[C@H]1Cc4ccc(O)c5c4[C@@]3(CCN1CC1CC1)[C@H]2O5 | 0.37

Each compound was assayed against Mu-type opioid receptor (Homo sapiens, UniProt P35372) (assay: Binding Assay). Conditions: pH 7.4.

Structure (SMILES) | Ki [nM]
CO[C@]12CC[C@@]3(C[C@@H]1CNC(=O)[C@@H](N)Cc1c[nH]cn1)[C@H]1Cc4ccc(O)c5c4[C@@]3(CCN1CC1CC1)[C@H]2O5 | 3.18
COC12CC[C@@]3(C[C@@H]1CNC(=O)c1ccccc1C(=O)O)[C@H]1Cc4ccc(O)c5c4[C@@]3(CCN1CC1CC1)[C@H]2O5 | 1.51
CO[C@]12CC[C@@]3(C[C@@H]1CNC(=O)[C@H](CO)NC(C)=O)[C@H]1Cc4ccc(O)c5c4[C@@]3(CCN1CC1CC1)[C@H]2O5 | 5.83
CO[C@]12CC[C@@]3(C[C@@H]1CNC(=O)[C@@H](N)Cc1ccccc1)[C@H]1Cc4ccc(O)c5c4[C@@]3(CCN1CC1CC1)[C@H]2O5 | 3.66
CO[C@]12CC[C@@]3(C[C@@H]1CNC(=O)[C@@H](N)Cc1ccc(O)cc1)[C@H]1Cc4ccc(O)c5c4[C@@]3(CCN1CC1CC1)[C@H]2O5 | 0.77
CO[C@]12CC[C@@]3(C[C@@H]1CNC(=O)CN)[C@H]1Cc4ccc(O)c5c4[C@@]3(CCN1CC1CC1)[C@H]2O5 | 0.53
CO[C@]12CC[C@@]3(C[C@@H]1CNC(=O)[C@H](Cc1ccccc1)NC(C)=O)[C@H]1Cc4ccc(O)c5c4[C@@]3(CCN1CC1CC1)[C@H]2O5 | 0.36

These compounds were tested against Delta-type opioid receptor (Homo sapiens, UniProt P41143) (assay: Binding Assay). Conditions: pH 7.4.

Structure (SMILES) | Ki [nM]
COC12CC[C@@]3(C[C@@H]1CNC(=O)c1ccccc1C(=O)O)[C@H]1Cc4ccc(O)c5c4[C@@]3(CCN1CC1CC1)[C@H]2O5 | 6.46
CO[C@]12CC[C@@]3(C[C@@H]1CNC(=O)[C@@H](N)Cc1ccccc1)[C@H]1Cc4ccc(O)c5c4[C@@]3(CCN1CC1CC1)[C@H]2O5 | 2.01
